Values quoted from earlier work, collected in PMC11338008, “Development and validation of CYP26A1 inhibition assay for high-throughput screening” (Biotechnology journal, 2024).
Where a name gives a salt, the structure may show the parent alone.

System: recombinant CYP26A1
Details: cited from earlier work

Row | SMILES | IC50
1 | C/C(=C\c1ccc(C(=O)O)cc1)c1ccc2c(c1)C(C)(C)CCC2(C)C [TTNPB/Arotinoid acid, Arotinoid acid] | 3700 nM
2 | Clc1cccc(C(c2ccc3[nH]cnc3c2)n2ccnc2)c1 (centres unmarked) [Liarozole dihydrochloride] | 2100 nM
3 | CC(=O)N1CCN(c2ccc(OCC3COC(Cn4ccnc4)(c4ccc(Cl)cc4Cl)O3)cc2)CC1 (centres unmarked) [Ketoconazole] | 550 nM
4 | CCC(CC)C(c1ccc(Nc2nc3ccccc3s2)cc1)n1cncn1 (centres unmarked) [R115866/Talarozole, Talarozole] | 5 nM
5 | C=C(c1ccc(C(=O)O)cc1)c1cc2c(cc1C)C(C)(C)CCC2(C)C [Bexarotene] | 12300 nM
